Experimental data published in publication PMC11066876, “Late-Stage Saturation of Drug Molecules” (Journal of the American Chemical Society, 2024).

Assay: High-throughput (direct-to-biology) human liver microsomal stability assay
Details: human liver microsomes

Boc-Maprotiline
%Change After 60 min (%remaining after LSS minus before LSS at 60 min): -7.24%
%Remaining Before LSS 0 min (pure unsaturated drug, 0 min): 100%
%Remaining Before LSS 15 min (pure unsaturated drug, 15 min): 71.56%
%Remaining Before LSS 30 min (pure unsaturated drug, 30 min): 59.39%
%Remaining Before LSS 60 min (pure unsaturated drug, 60 min): 45.29%
